# According to patent US20230203081A1, “LINCOSAMIDE ANTIBIOTICS AND USES THEREOF” (President and Fellows of Harvard College, priority 2020, published 2023):
# Where two headings read alike, the source gives them in different places.
# What was measured:
# [1] = test system: S. aureus MMX 3035 cErmA; test: MIC (broth microdilution or agar dilution, CLSI); type: cell-based; conditions: Staphylococcus aureus, MMX3035CERMA, S. aureus HAV#031, MMX 3035
# [2] = test system: S. pneumoniae MMX 3028 cErmB; test: MIC (broth microdilution or agar dilution, CLSI); type: cell-based; conditions: Streptococcus pneumoniae, MMX3028CERMB, S. pneumoniae HAV#033
# [3] = test system: S. pyogenes MMX 946; cErmB; test: MIC (broth microdilution or agar dilution, CLSI); type: cell-based; conditions: Streptococcus pyogenes, S. pyogenes HAV#035, MMX 946, mac-resistant
# [4] = test system: E. faecalis MMX 847; cErmB; test: MIC (broth microdilution or agar dilution, CLSI); type: cell-based; conditions: Enterococcus faecalis, E. faecalis HAV#036, MMX 847, mac-resistant
# [5] = test system: broad panel of different clinical isolates; test: microbe, parasite or virus in culture; type: cell-based
# [6] = test system: S. pyogenes ATCC 19615; type: in vivo
# Protocol: Mouse systemic infection study: S. pyogenes ATCC 19615 was cultured overnight on blood agar plates in 5% CO2 at 35° C. before being suspended in BHIB. The optical density of the bacterial suspension was adjusted to 0.1 at 600 nm using sterile BHIB and was then further diluted 1:1 in 10% hog gastric mucin (HGM, type III) to prepare the infecting inoculum in 5% HGM. Mice were infected by intraperitoneal injection of 250 μL, infecting inoculum, representing 1-2×10^6 CFU per animal. At time points 1, 5, 17, and 29 h post-infection, animals were administered intravenous infusions of FSA-513018b (1, 3, or 10 mg/kg, 250 μL in 10% Captisol; […]; 8 mice per dose level), or vehicle as negative control (10% Captisol, 250 μL; 10 mice). Animals were monitored for survival for seven days following infection.
structure (smiles),measurement,setting,value
"CCC[C@@H]1C[C@@H](C(=O)N[C@@H]([C@H]2O[C@H](SC)[C@H](O)[C@@H](O)[C@H]2O)[C@H](C)Cl)N(C)C1 [Clindamycin, clindamycin, reference compound]",MIC,[1],> 256 µg/mL
same,MIC,[2],256 µg/mL
same,MIC,[3],> 256 µg/mL
same,MIC,[4],> 256 µg/mL
same,MIC,"[5]; Enterococcus faecalis, E. faecalis HAV#607, Clinical",> 256 µg/mL
same,MIC,"[5]; Enterococcus faecalis, E. faecalis HAV#608, Clinical",> 256 µg/mL
same,MIC,"[5]; Enterococcus faecalis, E. faecalis HAV#609, Clinical",> 256 µg/mL
same,MIC,"[5]; Enterococcus faecalis, E. faecalis HAV#610, Clinical",> 256 µg/mL
same,MIC,"[5]; Enterococcus faecalis, VRE, E. faecalis HAV#606, Clinical",> 256 µg/mL
same,MIC,"[5]; Enterococcus faecium, E. faecium HAV#324, Clinical",> 256 µg/mL
same,MIC,"[5]; Enterococcus faecium, E. faecium HAV#328, Clinical",> 256 µg/mL
same,MIC,"[5]; Enterococcus faecium, E. faecium HAV#329, Clinical",> 256 µg/mL
same,MIC,"[5]; Klebsiella pneumoniae, K. pneumoniae HAV#041, Clinical, KPC",256 µg/mL
same,MIC,"[5]; Staphylococcus aureus, S. aureus HAV#054, mecA, norA, spcl, aad1, fosB, ermA, aac6′-aph2″, blaZ",> 256 µg/mL
same,Mice surviving,"[6]; 1 mg/kg i.v., Day 1, n=8, clindamycin given as clindamycin phosphate",8
same,Mice surviving,"[6]; 1 mg/kg i.v., Day 2, n=8",8
same,Mice surviving,"[6]; 1 mg/kg i.v., Day 3, n=8",8
same,Mice surviving,"[6]; 1 mg/kg i.v., Day 4, n=8",8
same,Mice surviving,"[6]; 1 mg/kg i.v., Day 5, n=8",8
same,Mice surviving,"[6]; 1 mg/kg i.v., Day 6, n=8",8
same,Mice surviving,"[6]; 1 mg/kg i.v., Day 7, n=8",8
same,Mice surviving,"[6]; 3 mg/kg i.v., Day 1, n=8",8
same,Mice surviving,"[6]; 3 mg/kg i.v., Day 2, n=8",8
same,Mice surviving,"[6]; 3 mg/kg i.v., Day 3, n=8",8
same,Mice surviving,"[6]; 3 mg/kg i.v., Day 4, n=8",8
same,Mice surviving,"[6]; 3 mg/kg i.v., Day 5, n=8",8
same,Mice surviving,"[6]; 3 mg/kg i.v., Day 6, n=8",8
same,Mice surviving,"[6]; 3 mg/kg i.v., Day 7, n=8",8
same,Mice surviving,"[6]; 10 mg/kg i.v., Day 1, n=8",8
same,Mice surviving,"[6]; 10 mg/kg i.v., Day 2, n=8",7
same,Mice surviving,"[6]; 10 mg/kg i.v., Day 3, n=8",7
same,Mice surviving,"[6]; 10 mg/kg i.v., Day 4, n=8",7
same,Mice surviving,"[6]; 10 mg/kg i.v., Day 5, n=8",7
same,Mice surviving,"[6]; 10 mg/kg i.v., Day 6, n=8",7
same,Mice surviving,"[6]; 10 mg/kg i.v., Day 7, n=8",7
